{
  "sequences": {"note": "Sequences of proteins named here, by UniProt entry; tags and fusion partners are left off. A change or cut given only in a name is not applied to a line headed by its entry.", "UniProt P43490": "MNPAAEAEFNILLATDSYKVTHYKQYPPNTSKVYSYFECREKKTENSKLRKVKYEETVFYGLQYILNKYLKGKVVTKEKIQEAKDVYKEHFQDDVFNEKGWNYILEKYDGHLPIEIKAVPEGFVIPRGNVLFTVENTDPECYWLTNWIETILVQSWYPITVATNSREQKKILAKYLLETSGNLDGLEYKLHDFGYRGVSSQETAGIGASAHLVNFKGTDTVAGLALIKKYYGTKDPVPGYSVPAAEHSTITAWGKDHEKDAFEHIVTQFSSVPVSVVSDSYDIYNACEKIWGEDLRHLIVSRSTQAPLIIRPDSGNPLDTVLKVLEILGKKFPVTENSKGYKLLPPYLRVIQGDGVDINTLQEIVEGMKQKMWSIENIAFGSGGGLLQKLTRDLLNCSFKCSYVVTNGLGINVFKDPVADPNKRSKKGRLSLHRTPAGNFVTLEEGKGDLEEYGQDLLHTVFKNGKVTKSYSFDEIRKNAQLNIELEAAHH"},
  "source": "patent US10730889B2",
  "about": "“Amido spirocyclic amide and sulfonamide derivatives” (Forma TM, LLC, priority 2012, dated 2020)",
  "data": [
    {"molecular_target": "NAMPT (Homo sapiens (Human), UniProt P43490)", "experiment": "Biochemical inhibition assay (NAMPT enzymatic reaction, NMN quantified by mass spectrometry)", "units": {"IC50": "nM"}, "values": [
      {"smiles": "O=C(Cc1ccccn1)N1CCC2(CC1)CC2CNC(=O)N1Cc2ccncc2C1", "note": "(stereo not shown) [Example 176, N-[[6-[2-(2-pyridyl)acetyl]-6-azaspiro[2.5]octan-2-yl]methyl] 1,3-dihydropyrrolo[3,4-c]pyridine-2-carboxamide]", "IC50": 37.6},
      {"smiles": "O=C(Cc1cccnc1)N1CCC2(CC1)CC2CNC(=O)N1Cc2ccncc2C1", "note": "(stereo not shown) [Example 177]", "IC50": 36.3},
      {"smiles": "O=C(NCC1CC12CCN(C(=O)c1ccc(-n3cncn3)cc1)CC2)c1cc2ccncc2o1", "note": "(stereo not shown) [Example 179, N-[[6-[4-(1,2,4-triazol-1-yl)benzoyl]-6-azaspiro[2.5]octan-2-yl]methyl]furo[2,3-c]pyridine-2-carboxamide]", "IC50": 34},
      {"smiles": "Cc1nccn1CC(=O)N1CCC2(CC1)CC2CNC(=O)c1cc2ccncc2o1", "note": "(stereo not shown) [Example 180, N-[[6-[2-(2-methylimidazol-1-yl)acetyl]-6-azaspiro[2.5]octan-2-yl]methyl]furo[2,3-c]pyridine-2-carboxamide]", "IC50": 2000},
      {"smiles": "Cc1nn(C)c(C)c1C(=O)N1CCC2(CC1)CC2CNC(=O)c1cc2ccncc2o1", "note": "(stereo not shown) [Example 181, N-[[6-(1,3,5-trimethylpyrazole-4-carbonyl)-6-azaspiro[2.5]octan-2-yl]methyl]furo[2,3-c]pyridine-2-carboxamide]", "IC50": 17.3},
      {"smiles": "CC(C)(C)NC(=O)N1CCC2(CC1)CC2CNC(=O)c1cc2ccncc2o1", "note": "(stereo not shown) [Example 182, N-[[6-(tert-butylcarbamoyl)-6-azaspiro[2.5]octan-2-yl]methyl]furo[2,3-c]pyndine-2-carboxamide]", "IC50": 255},
      {"smiles": "CC(C)NC(=O)N1CCC2(CC1)CC2CNC(=O)c1cc2ccncc2o1", "note": "(stereo not shown) [Example 183, N-[[6-(isopropylcarbamoyl)-6-azaspiro[2.5]octan-2-yl]methyl]furo[2,3-c]pyridine-2-carboxamide]", "IC50": 314},
      {"smiles": "O=C(NCC1CC12CCN(C(=O)NCC1CCCCC1)CC2)c1cc2ccncc2o1", "note": "(stereo not shown) [Example 184, N-[[6-(cyclohexylmethylcarbamoyl)-6-azaspiro[2.5]octan-2-yl]methyl]furo[2,3-c]pyridine-2-carboxamide]", "IC50": 422},
      {"smiles": "CCCNC(=O)N1CCC2(CC1)CC2CNC(=O)c1cc2ccncc2o1", "note": "(stereo not shown) [Example 185, N-[[6-(propylcarbamoyl)-6-azaspiro[2.5]octan-2-yl]methyl]furo[2,3-c]pyridine-2-carboxamide]", "IC50": 502},
      {"smiles": "O=C(NCC1CC12CCN(C(=O)NC1CCCCC1)CC2)c1cc2ccncc2o1", "note": "(stereo not shown) [Example 186, N-[[6-(cyclohexylcarbamoyl)-6-azaspiro[2.5]octan-2-yl)methyl]furo[2,3-c]pyridine-2-carboxamide]", "IC50": 97.2},
      {"smiles": "O=C(NCC1CC12CCN(C(=O)Nc1ccccc1)CC2)c1cc2ccncc2o1", "note": "(stereo not shown) [Example 187, N-[[6-(phenylcarbamoyl)-6-azaspiro[2.5]octan-2-yl]methyl]furo[2,3-c]pyridine-2-carboxamide]", "IC50": 44.6},
      {"smiles": "CC(C)N1CCC(CC(=O)N2CCC3(CC2)CC3CNC(=O)N2Cc3ccncc3C2)CC1", "note": "(stereo not shown) [Example 188, N-[[6-[2-(1-isopropyl-4-piperidyl)acetyl]-6-azaspiro[2.5]octan-2-yl]methyl]-1,3-dihydropyrrolo[3,4-c]pyridine-2-carboxamide]", "IC50": 30.1},
      {"smiles": "O=C(Cc1ccncc1)N1CCC2(CC1)CC2CNC(=O)N1Cc2ccncc2C1", "note": "(stereo not shown) [Example 190, N-[[6-[2-(4-pyridyl)acetyl]-6-azaspiro[2.5]octan-2-yl]methyl]-1,3-dihydropyrrolo[3,4-c]pyridine-2-carboxamide]", "IC50": 31.2},
      {"smiles": "N#CCC(=O)N1CCC2(CC1)CC2CNC(=O)N1Cc2ccncc2C1", "note": "(stereo not shown) [Example 191, N-[[6-(2-cyanoacetyl)-6-azaspiro[2.5]octan-2-yl]methyl]-1,3-dihydropyrrolo[3,4-c]pyridine-2-carboxamide]", "IC50": 156},
      {"smiles": "CC(C)(C)OC(=O)N1CCC2(CC1)CC(CNC(=O)c1cc3cnccc3[nH]1)C2", "note": "[Example 193, tert-butyl 2-[(1H-pyrrolo[3,2-c]pyridine-2-carbonylamino)methyl]-7-azaspiro[3.5]nonane-7-carboxylate]", "IC50": 212},
      {"smiles": "CC(C)(C)OC(=O)N1CCC2(CC1)CC(CNC(=O)c1cc3ccncc3o1)C2", "note": "[Example 194, tert-butyl 2-[(furo[2,3-c]pyridine-2-carbonylamino)methyl]-7-azaspiro[3.5]nonane-7-carboxylate]", "IC50": 668},
      {"smiles": "CC1(CC(=O)N2CCC3(CC2)CC3CNC(=O)c2cc3ccncc3o2)COC1", "note": "(stereo not shown) [Example 195, N-[[6-[2-(3-methyloxetan-3-yl)acetyl]-6-azaspiro[2.5]octan-2-yl]methyl]furo[2,3-c]pyridine-2-carboxamide]", "IC50": 78.5},
      {"smiles": "O=C(CC1CCCCC1)N1CCC2(CC1)CC2CNC(=O)N1Cc2ccncc2C1", "note": "(stereo not shown) [Example 196, N-[[6-(2-cyclohexylacetyl)-6-azaspiro[2.5]octan-2-yl]methyl]-1,3-dihydropyrrolo[3,4-c]pyridine-2-carboxamide]", "IC50": 14.4},
      {"smiles": "O=C(CN1CCOCC1)N1CCC2(CC1)CC2CNC(=O)N1Cc2ccncc2C1", "note": "(stereo not shown) [Example 198, N-[[6-(2-morpholinoacetyl)-6-azaspiro[2.5]octan-2-yl]methyl]-1,3-dihydropyrrolo[3,4-c]pyridine-2-carboxamide]", "IC50": 131},
      {"smiles": "CC(C)(C)OC(=O)N1CCC2(CC1)CC(CNC(=O)N1Cc3ccncc3C1)C2", "note": "[Example 200, tert-butyl 2-[(1,3-dihydropyrrolo[3,4-c]pyridine-2-carbonylamino)methyl]-7-azaspiro[3.5]nonane-7-carboxylate]", "IC50": 4.56},
      {"smiles": "O=C(Cc1cc(F)cc(F)c1)N1CCC2(CC1)CC2CNC(=O)N1Cc2ccncc2C1", "note": "(stereo not shown) [Example 201, N-[[6-[2-(3,5-difluorophenyl)acetyl]-6-azaspiro[2.5]octan-2-yl]methyl]-1,3-dihydropyrrolo[3,4-c]pyridine-2-carboxamide]", "IC50": 17.3},
      {"smiles": "CC(C)(C)NC(=O)N1CCC2(CC1)CC2CNC(=O)c1cc2cnccc2[nH]1", "note": "(stereo not shown) [Example 203, N-[[6-(tert-butylcarbamoyl)-6-azaspiro[2.5]octan-2-yl]methyl]-1H-pyrrolo[3,2-c]pyridine-2-carboxamide]", "IC50": 544},
      {"smiles": "COC(=O)C(C)(C)OC(=O)N1CCC2(CC1)CC2CNC(=O)c1cc2ccncc2o1", "note": "(stereo not shown) [Example 205, (2-methoxy-1,1-dimethyl-2-oxo-ethyl) 2-[(furo[2,3-c]pyridine-2-carbonylamino)methyl]-6-azaspiro[2.5]octane-6-carboxylate]", "IC50": 108},
      {"smiles": "O=C(NCC1CC12CCN(C(=O)Nc1ccccc1)CC2)N1Cc2ccncc2C1", "note": "(stereo not shown) [Example 208, N-[[6-(phenylcarbamoyl)-6-azaspiro[2.5]octan-2-yl]methyl]-1,3-dihydropyrrolo[3,4-c]pyridine-2-carboxamide]", "IC50": 34.7},
      {"smiles": "O=C(NCc1ccccc1)N1CCC2(CC1)CC2CNC(=O)N1Cc2ccncc2C1", "note": "(stereo not shown) [Example 210, N-[[6-(benzylcarbamoyl)-6-azaspiro[2.5]octan-2-yl]methyl]-1,3-dihydropyrrolo[3,4-c]pyridine-2-carboxamide]", "IC50": 58.8},
      {"smiles": "O=C(NCC1CC12CCN(S(=O)(=O)Cc1ccccc1)CC2)N1Cc2ccncc2C1", "note": "(stereo not shown) [Example 211, N-[(6-benzylsulfonyl-6-azaspiro[2.5]octan-2-yl)methyl]-1,3-dihydropyrrolo[3,4-c]pyridine-2-carboxamide]", "IC50": 27.8},
      {"smiles": "Cn1cc(C(=O)N2CCC3(CC2)CC3CNC(=O)N2Cc3ccncc3C2)cn1", "note": "(stereo not shown) [Example 221, N-[[6-(1-methylpyrazole-4-carbonyl)-6-azaspiro[2.5]octan-2-yl]methyl]-1,3-dihydropyrrolo[3,4-c]pyridine-2-carboxamide]", "IC50": 17.8},
      {"smiles": "CCn1nc(C)c(C(=O)N2CCC3(CC2)CC3CNC(=O)c2cc3c(o2)C=NCC3)c1C", "note": "(stereo not shown) [Example 222, N-[[6-(1-isopropyl-3,5-dimethyl-pyrazole-4-carbonyl)-6-azaspiro[2.5]octan-2-y]methyl]furo[2,3-c]pyridine-2-carboxamide]", "IC50": 50.4},
      {"smiles": "O=C(CCN1CCOCC1)N1CCC2(CC1)CC2CNC(=O)N1Cc2ccncc2C1", "note": "(stereo not shown) [Example 229, N-[[6-(3-morpholinopropanoyl)-6-azaspiro[2.5]octan-2-yl)methyl]-1,3-dihydropyrrolo[3,4-c]pyridine-2-carboxamide]", "IC50": 54.8},
      {"smiles": "O=C(NCC1CC12CCN(C(=O)C(F)(F)c1ccccc1)CC2)N1Cc2ccncc2C1", "note": "(stereo not shown) [Example 230, N-[[6-(2,2-difluoro-2-phenyl-acetyl)-6-azaspiro[2.5]octan-2-yl]methyl]-1,3-dihydropyrrolo[3,4-c]pyridine-2-carboxamide]", "IC50": 18.5},
      {"smiles": "Cc1cccnc1C(=O)N1CCC2(CC1)CC2CNC(=O)c1cc2ccncc2o1", "note": "(stereo not shown) [Example 231, N-[[6-(3-methylpyridine-2-carbonyl)-6-azaspiro[2.5]octan-2-yl]methyl]furo[2,3-c]pyridine-2-carboxamide]", "IC50": 201},
      {"smiles": "Cc1cnccc1C(=O)N1CCC2(CC1)CC2CNC(=O)c1cc2ccncc2o1", "note": "(stereo not shown) [Example 232, N-[[6-(3-methylpyridine-4-carbonyl)-6-azaspiro[2.5]octan-2-yl]methyl]furo[2,3-c]pyridine-2-carboxamide]", "IC50": 98.3},
      {"smiles": "Cc1ccc(C(=O)N2CCC3(CC2)CC3CNC(=O)c2cc3ccncc3o2)cn1", "note": "(stereo not shown) [Example 233, N-[[6-(6-methylpyridine-3-carbonyl)-6-azaspiro[2.5]octan-2-yl]methyl]furo[2,3-c]pyridine-2-carboxamide]", "IC50": 45.8},
      {"smiles": "Cc1ccnc(C(=O)N2CCC3(CC2)CC3CNC(=O)c2cc3ccncc3o2)c1", "note": "(stereo not shown) [Example 235, N-[[6-(4-methylpyridine-2-carbonyl)-6-azaspiro[2.5]octan-2-yl]methyl]furo[2,3-c]pyridine-2-carboxamide]", "IC50": 288},
      {"smiles": "O=C(NCC1CC12CCN(C(=O)c1cccc3[nH]cnc13)CC2)c1cc2ccncc2o1", "note": "(stereo not shown) [Example 236, N-[[6-(1H-benzimidazole-4-carbonyl)-6-azaspiro[2.5]octan-2-yl]methyl]furo[2,3-c]pyridine-2-carboxamide]", "IC50": 33.9},
      {"smiles": "O=C(NCC1CC12CCN(C(=O)c1cc3cccn3cn1)CC2)c1cc2ccncc2o1", "note": "(stereo not shown) [Example 237, N-[[6-(pyrrolo[1,2-c]pyrimidine-3-carbonyl)-6-azaspiro[2.5]octan-2-yl]methyl]furo[2,3-c]pyridine-2-carboxamide]", "IC50": 50.1},
      {"smiles": "O=C(NCC1CC12CCN(C(=O)c1ccc3[nH]nnc3c1)CC2)c1cc2ccncc2o1", "note": "(stereo not shown) [Example 238, N-[[6-(1H-benzotriazole-5-carbonyl)-6-azaspiro[2.5]octan-2-yl]methyl]furo[2,3-c]pyridine-2-carboxamide]", "IC50": 31.7}
    ]}
  ]
}
